Entries after “also recorded” stand apart in the source; their conditions may differ.

Sequences of proteins named here, by UniProt entry; tags and fusion partners are left off. Residues count along the entry.
UniProt P23979, 24-483 isoform P23979-2 limits assumed: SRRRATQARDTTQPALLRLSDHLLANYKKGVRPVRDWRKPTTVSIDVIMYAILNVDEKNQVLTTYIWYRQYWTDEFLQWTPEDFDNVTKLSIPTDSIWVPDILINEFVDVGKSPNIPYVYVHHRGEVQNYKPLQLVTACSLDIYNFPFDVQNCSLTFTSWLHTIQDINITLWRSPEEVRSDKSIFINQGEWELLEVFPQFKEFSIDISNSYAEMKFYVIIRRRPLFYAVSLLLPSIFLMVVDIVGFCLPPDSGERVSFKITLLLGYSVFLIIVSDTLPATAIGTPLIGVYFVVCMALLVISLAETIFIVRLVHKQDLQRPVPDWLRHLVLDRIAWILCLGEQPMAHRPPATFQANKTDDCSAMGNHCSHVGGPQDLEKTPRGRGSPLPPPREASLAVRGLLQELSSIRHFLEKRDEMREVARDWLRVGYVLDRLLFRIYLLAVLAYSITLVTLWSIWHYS

For this experiment, the target named is T1, wild-type (WT) 5-HT3AR (Mus musculus, UniProt P23979).
T1 construct: Full-length 5-HT3AR messenger RNA (mRNA) was injected into oocytes; expressed in transfected cells; host or cells: Xenopus laevis oocytes (mRNA injection, pTLN vector)
The experiment can be described thus: Granisetron inhibition of serotonin-activated currents, TEVC in oocytes. The class given is cell-based. The method, then: Data are shown as mean ± s.d. (n is indicated within parentheses). Significance at p = 0.001 (***) and […] calculated by two-sample t test for WT and mutants. Source data are provided as a Source Data file
The gene encoding mouse 5-HT3AR (purchased from GenScript) was inserted into a Xenopus laevis expression vector (pTLN) using cloning primers shown in Supplementary Table 1. DNA linearization was carried out with the Mlu1 restriction enzyme overnight at 37 °C. mRNA synthesis was done using the mMessage mMachine Kit (Ambion) as per the manufacturer’s instructions and purification was done with RNAeasy Kit (Qiagen). mRNA for studied mutants was prepared in the same way. Three to ten nanograms of mRNA was injected into X. laevis oocytes (stages V–VI) and experiments were performed 2–5 days after injection. For control experiments to verify that no endogenous currents were present, oocytes were injected with the same volume of water. W.F. Boron kindly provided oocytes used in this study. Female X. laevis were purchased from Nasco. Animal experimental procedures were approved by Institutional Animal Care and Use Committee (IACUC) of Case Western Reserve University. […] Oocytes were clamped at a holding potential of −60 mV. Solutions were changed using a syringe pump perfusion system flowing at a rate of 6 ml/min.

Take `CN1C2CCCC1CC(NC(=O)c1nn(C)c3ccccc13)C2` (stereo not shown) [granisetron]: the “effect on currents induced by 10 µM serotonin” value (100 nM granisetron) is recorded as “completely eliminates currents; also recorded: completely eliminates activation”. Where the note is “granisetron washed off and serotonin subsequently applied”, the reversibility of inhibition result is reported as “fully reversible”. In addition, under “oocytes pre-exposed to 1 nM granisetron, 10 µM serotonin”, the “effect on peak current” value is on record as “significantly inhibited”. Further, the “currents evoked by granisetron alone (agonist activity)” value (up to 100 nM, no serotonin) is “does not evoke currents”.

Values taken from publication PMC6642186, “Molecular mechanism of setron-mediated inhibition of full-length 5-HT3A receptor” (Nature Communications, 2019).
